The values below are quoted from earlier work in publication PMC11774939, “Optimizing lipopeptide bioactivity: The impact of non-ionic surfactant dressing” (Journal of Pharmaceutical Analysis, 2024).

The conditions of data set [1]: approved drug characteristics; cited from earlier work. The source says: Supplement mmc1.docx, table 1: Table S1. Lipopeptide-based drugs, with their characteristics, disease target, and the year of approval. | column: Half-life (h); Route of elimination
For data set [2] the following is noted: approved drug characteristics; cited from earlier work. The source says:
Supplement mmc1.docx, table 1: Table S1. Lipopeptide-based drugs, with their characteristics, disease target, and the year of approval. | column: Plasma protein binding
The source holds these as a separate data set.

Colistimethate: in data set [1], the Half-life was 2 to 3 h and the Route of elimination entry is “Mainly urinary excretion”.
As to Dalbavancin, in data set [1], the Half-life is given as 346 h.
With Daptomycin, the Half-life in data set [1] is 7.5 to 9 h.
With Liraglutide, in data set [2], the Plasma protein binding was 98%. Also, in data set [1], the Half-life is given as 13 h; the Route of elimination entry was “Urinary and fecal excretion”.
With Semaglutide, the Plasma protein binding in data set [2] is listed as greater than 99%. Moreover, in data set [1], the Half-life is 168 h; the Route of elimination result was “Urinary and fecal excretion”.
With Tirzepatide, the Plasma protein binding in data set [2] is 99%. In data set [1], the Half-life is reported as 120 h; the Route of elimination result was “Urinary and fecal excretion”.
